Laboratory results: PubChem BioAssay AID360 (National Center for Advancing Translational Sciences (NCATS), 2006)
The entries are a selection whose mix differs from that of the whole data set. Results filed as inconclusive are left out. Active and inactive are the calls of the source. Cut-off read from the data, not from the text of the source: active = potency below about 15 µM; inconclusive = mostly about 16 µM to 33 µM; inactive = weaker than that.

Amino acid sequences for entries named in this document (tags omitted). A change or cut given only in a name is not applied to a line headed by its entry.
UniProt P04062: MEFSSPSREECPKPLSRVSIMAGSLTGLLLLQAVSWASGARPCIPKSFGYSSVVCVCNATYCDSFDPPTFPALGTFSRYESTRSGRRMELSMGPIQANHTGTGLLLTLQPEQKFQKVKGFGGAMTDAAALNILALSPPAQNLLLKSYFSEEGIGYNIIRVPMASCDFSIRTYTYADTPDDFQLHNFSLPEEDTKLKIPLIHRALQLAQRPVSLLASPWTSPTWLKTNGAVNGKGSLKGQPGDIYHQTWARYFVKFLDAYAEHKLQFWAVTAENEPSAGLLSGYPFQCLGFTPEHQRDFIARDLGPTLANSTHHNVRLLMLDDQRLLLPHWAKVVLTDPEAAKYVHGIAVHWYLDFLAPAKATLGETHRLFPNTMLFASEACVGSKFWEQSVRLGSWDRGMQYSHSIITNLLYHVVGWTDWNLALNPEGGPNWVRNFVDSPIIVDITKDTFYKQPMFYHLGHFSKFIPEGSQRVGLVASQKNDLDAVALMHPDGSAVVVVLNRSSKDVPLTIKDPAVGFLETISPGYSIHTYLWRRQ

Molecular target: Lysosomal acid glucosylceramidase (Homo sapiens) (UniProt P04062)
Assay: Glucocerebrosidase;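 note: the screen sought inhibitors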
Conditions: purified enzyme, resorufin glucoside fluorescence (screen aimed at inhibitors), 20 min
From the text: NCGC Assay Overview: Beta-glucocerebrosidase catalyzes the hydrolysis of beta-glucocerebroside to glucose and ceramide. The inherited deficiency of beta-glucocerebrosidase results in Gaucher disease, which is characterized by a wide variety of symptoms including hepatosplenomegaly, anemia, thrombocytopenia, bony lesions and bone marrow infiltration with characteristic storage cells, known as Gaucher cells. There are also forms of the disorder affecting the central nervous system. Patients with the same genotypes can manifest with diverse clinical presentations and it is believed that improper folding and trafficking of beta-glucocerbrosidase may contribute to the phenotypes observed. […]
NCGC Assay Protocol Summary: Both enzyme and substrate were diluted in buffer composed of 50mM citric acid/KH2PO4, 10mM sodium taurocholate and 0.01% tween-20 at pH 5.9. […] This particular assay protocol is for the "red" substrate, and it was performed in 1536-well plate format as follows: Red fluorescence substrate assay: 2 uL enzyme 23 nL compound 1 uL substrate (final concentration of 30 uM) Incubate at room temperature (RT) for 20 minutes Read the plate in Viewlux plate reader (Ex=548(7) and Em=600(10)).
Potency is the fitted concentration of half-maximal effect.

Compound | Potency
COc1ccc(Cl)cc1Nc1nc(NCCO)nc(N2CCCC2)n1 | active: 871 nM
CCc1nnc(NC(=O)c2ccc(NS(=O)(=O)c3ccccc3)cc2)s1 | active: 70 nM
